Source: article PMC7290320

Tests used:
[1] = biological target: zebrafish Rbpr2 Leu273Ser mutant, V5-tagged (zebrafish)
[2] = biological target: zebrafish Rbpr2 Ser268Ala mutant, V5-tagged (zebrafish)
[3] = biological target: zebrafish Rbpr2 Tyr272Pro mutant, V5-tagged (zebrafish)

[3H]ROL-RBP4 uptake at 60 min in stable NIH3T3/LRAT cells, scintillation counting (% activity of WT-Rbpr2) [1]: < 12
[3H]ROL-RBP4 uptake at 60 min in stable NIH3T3/LRAT cells, scintillation counting (% activity of WT-Rbpr2) [2]: < 12
[3H]ROL-RBP4 uptake at 60 min in stable NIH3T3/LRAT cells, scintillation counting (% activity of WT-Rbpr2) [3]: < 12
Substance: human plasma retinol-binding protein (RBP4), retinol-bound (holo-RBP4) (from UniProt P02753 19-194) (ligand)
